In patent publication US12421222B2 (AUGUSTINE THERAPEUTICS, priority 2021, dated 2025):

Tested on: acetylated tubulin (Lys40) in HeLa cells
Experiment: Acetylated α-tubulin measurement in vitro (immunocytochemistry)
Format: cell-based
Settings: Homo sapiens, 6 hours incubation, acetylated tubulin (Lys40) by immunocytochemistry, read-out: IC50 (Tubulin deacetylation)
Method: HeLa cells were cultured in UltraCulture serum-free medium (Lonza) supplemented with 2 mM glutamine (Lonza). Assays were performed at 96-well or 384-well format, differences in assay protocols are detailed in Table 6. Cells per well were plated and incubated overnight at 37° C. overnight in a humidified atmosphere containing 5% CO2. Cell density and seeding volumes are detailed in Table 6. Compounds (dissolved in 100% DMSO) or DMSO (vehicle) were added manually by diluting them in culture medium at 10× final assay concentration and adding 10 μL to cells (96-well protocol). Alternatively, 50 nL compound was added directly to the cell culture using the Echo650 (Labcyte) (384-well protocol). In this assay, the final assay concentration of DMSO is 0.1%-0.4%. Trichostatin A (TSA) was used as a positive control. Cells were incubated with compounds at 37° C. in a humidified atmosphere containing 5% CO2 for 6 hours. Levels of acetylated tubulin (Lys40) were assessed by immunocytochemistry using target-specific antibodies. […] Cytoplasmic (defined by total α-tubulin staining) intensities per well were used for α-tubulin (acetylated and total) quantification. Intensities were measured per cell and then averaged per well. […] EC50 values were calculated using the log(inhibitor) vs. response—Variable slope (four parameters) nonlinear regression in GraphPad Prism software.

IC50	SMILES
≤ 100 nM	Cc1nc(SCC(=O)c2ccc(CNC(=O)CO)s2)c2cc(N3CC4CCC3CO4)ccc2n1 (centres unmarked) [Example 147, N-((5-(2-((6-(2-oxa-5-azabicyclo[2.2.2]octan-5-yl)-2-methylquinazolin-4-yl)thio)acetyl)thiophen-2-yl)methyl)-2-hydroxyacetamide]
100 to 500 nM	COc1cc2c(SCC(=O)c3ccc(CNC(=O)CO)s3)nc(C)nc2cc1F [Example 75, N-((5-(2-((7-fluoro-6-methoxy-2-methylquinazolin-4-yl)thio)acetyl)thiophen-2-yl)methyl)-2-hydroxyacetamide]
